# Source: patent US20220226340A1, “CASEIN KINASE 1 INHIBITORS FOR USE IN THE TREATMENT OF DISEASES RELATED TO DUX4 EXPRESSION SUCH AS MUSCULAR DYSTROPHY AND CANCER” (Facio Intellectual Property B.V., priority 2019, published 2022)
# The chains behind the UniProt entries cited, without tags or fusion partners. Where a name states a change or a piece, a line headed by the entry shows the natural chain unless it says otherwise.
# UniProt P49674: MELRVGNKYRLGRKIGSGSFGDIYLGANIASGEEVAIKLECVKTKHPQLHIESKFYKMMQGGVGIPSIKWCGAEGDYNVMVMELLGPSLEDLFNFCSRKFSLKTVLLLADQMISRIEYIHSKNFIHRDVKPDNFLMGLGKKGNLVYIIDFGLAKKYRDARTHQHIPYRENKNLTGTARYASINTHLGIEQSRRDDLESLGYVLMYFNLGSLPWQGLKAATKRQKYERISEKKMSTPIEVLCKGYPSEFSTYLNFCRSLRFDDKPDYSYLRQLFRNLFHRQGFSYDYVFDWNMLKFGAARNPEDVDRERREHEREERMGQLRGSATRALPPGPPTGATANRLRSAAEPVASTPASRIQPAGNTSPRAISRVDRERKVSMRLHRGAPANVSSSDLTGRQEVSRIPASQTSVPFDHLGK
# UniProt P48730: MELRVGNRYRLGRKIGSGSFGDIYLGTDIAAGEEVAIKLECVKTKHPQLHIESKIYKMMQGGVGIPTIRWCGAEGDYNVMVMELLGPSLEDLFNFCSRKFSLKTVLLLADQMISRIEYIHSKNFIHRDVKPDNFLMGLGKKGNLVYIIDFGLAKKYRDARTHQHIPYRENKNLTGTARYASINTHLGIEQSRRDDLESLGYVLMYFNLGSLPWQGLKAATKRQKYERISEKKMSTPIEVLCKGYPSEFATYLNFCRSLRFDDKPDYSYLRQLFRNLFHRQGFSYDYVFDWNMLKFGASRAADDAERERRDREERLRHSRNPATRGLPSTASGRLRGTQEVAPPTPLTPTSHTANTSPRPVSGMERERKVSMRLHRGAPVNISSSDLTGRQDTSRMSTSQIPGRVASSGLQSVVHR
# Read-outs that look alike come from different tables or passages of the source.
# How the values were obtained:
# CK1ε = CK1ε (Homo sapiens, UniProt P49674); assay: CK1ε inhibition IC50; format: biochemical; conditions: read-out: CK1 e IC50
# CK1δ = CK1δ (Homo sapiens, UniProt P48730); assay: CK1δ inhibition IC50; format: biochemical; conditions: read-out: CK1 d IC50
compound,measurement,setting,value
CN1Cc2nccc(-c3cn(C)nc3-c3ccc(F)cc3)c2C1=O [Nr. 5],IC50,CK1ε; Table 3,83.6 nM
same,IC50,CK1ε; Table 4,83.6 nM
same,IC50,CK1δ; Table 3,30.7 nM
same,IC50,CK1δ; Table 4,30.7 nM
